For assay [1], the target named is Casein kinase I isoform gamma-1 (Homo sapiens) (UniProt Q9HCP0). The note with it: at 10 µM.
Assay [2] has as its target Dual specificity protein kinase CLK3 (Homo sapiens) (UniProt P49761). The note with it: at 10 µM.
The target in assay [3] is Glycogen synthase kinase-3 beta (Homo sapiens) (UniProt P49841). Particulars: at 1 µM; call rule not given here.
The target of assay [4] is Homeodomain-interacting protein kinase 2 (Homo sapiens) (UniProt Q9H2X6). The note with it: at 10 µM.
Assay [5] addresses Tyrosine-protein kinase HCK (Homo sapiens) (UniProt P08631). The note with it: at 1 µM.
The target in assay [6] is Tyrosine-protein kinase Lck (Homo sapiens) (UniProt P06239). Particulars: at 10 µM.
In assay [7] the target is Serine/threonine-protein kinase 4 (Homo sapiens) (UniProt Q13043). The note with it: at 10 µM.
For assay [8], the target named is Serine/threonine-protein kinase Nek3 (Homo sapiens) (UniProt P51956). The note with it: at 1 µM.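 Further: residual NEK3 kinase activity given as percent of control, assayed in 8 mM MOPS buffer pH 7.0 containing 0.2 mM EDTA.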
For assay [9], the target named is Serine/threonine-protein kinase mTOR (Homo sapiens) (UniProt P42345). The note with it: at 10 µM.
Assay [10] shares this target. Particulars: at 1 µM.
Assay [11] deals with T1, Serine/threonine-protein kinase Nek6 (Homo sapiens) (UniProt Q9HC98).
T1 sequence (whole entry): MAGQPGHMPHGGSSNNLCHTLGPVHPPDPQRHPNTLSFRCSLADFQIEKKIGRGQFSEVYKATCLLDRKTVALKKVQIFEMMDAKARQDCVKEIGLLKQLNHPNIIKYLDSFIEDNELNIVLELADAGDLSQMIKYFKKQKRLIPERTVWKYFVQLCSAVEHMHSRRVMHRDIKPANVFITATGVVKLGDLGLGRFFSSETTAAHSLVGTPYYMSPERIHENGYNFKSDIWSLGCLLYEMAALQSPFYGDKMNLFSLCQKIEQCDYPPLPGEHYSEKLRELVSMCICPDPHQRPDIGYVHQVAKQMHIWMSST
Particulars: at 1 µM.

Protein sequences, listed by entry. Tags and fused reporters are not part of them. Lines headed by an entry give the natural chain unless they say otherwise; changes in a name come on top.
UniProt Q9HCP0: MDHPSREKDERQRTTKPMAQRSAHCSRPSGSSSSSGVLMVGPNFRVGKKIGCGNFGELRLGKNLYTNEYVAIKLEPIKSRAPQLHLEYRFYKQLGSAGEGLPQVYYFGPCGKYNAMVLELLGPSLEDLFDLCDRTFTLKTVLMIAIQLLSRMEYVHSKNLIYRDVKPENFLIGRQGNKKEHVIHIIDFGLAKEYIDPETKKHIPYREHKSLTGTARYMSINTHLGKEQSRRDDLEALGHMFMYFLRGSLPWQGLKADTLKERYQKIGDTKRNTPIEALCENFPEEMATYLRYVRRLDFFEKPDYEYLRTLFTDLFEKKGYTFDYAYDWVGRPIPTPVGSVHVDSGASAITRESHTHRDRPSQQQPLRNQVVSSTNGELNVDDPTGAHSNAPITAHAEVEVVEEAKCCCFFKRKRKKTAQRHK
UniProt P49841: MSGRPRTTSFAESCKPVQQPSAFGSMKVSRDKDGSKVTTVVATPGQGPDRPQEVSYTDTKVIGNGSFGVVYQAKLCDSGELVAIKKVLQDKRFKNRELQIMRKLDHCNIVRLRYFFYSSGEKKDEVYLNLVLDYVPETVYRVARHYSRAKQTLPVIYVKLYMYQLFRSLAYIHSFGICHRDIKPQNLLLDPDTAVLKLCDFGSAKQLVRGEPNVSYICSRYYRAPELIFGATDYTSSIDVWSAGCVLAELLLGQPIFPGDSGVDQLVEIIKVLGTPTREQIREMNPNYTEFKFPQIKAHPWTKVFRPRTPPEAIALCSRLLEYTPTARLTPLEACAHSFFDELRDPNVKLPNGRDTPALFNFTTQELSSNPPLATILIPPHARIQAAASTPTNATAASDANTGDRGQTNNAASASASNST
UniProt Q9H2X6: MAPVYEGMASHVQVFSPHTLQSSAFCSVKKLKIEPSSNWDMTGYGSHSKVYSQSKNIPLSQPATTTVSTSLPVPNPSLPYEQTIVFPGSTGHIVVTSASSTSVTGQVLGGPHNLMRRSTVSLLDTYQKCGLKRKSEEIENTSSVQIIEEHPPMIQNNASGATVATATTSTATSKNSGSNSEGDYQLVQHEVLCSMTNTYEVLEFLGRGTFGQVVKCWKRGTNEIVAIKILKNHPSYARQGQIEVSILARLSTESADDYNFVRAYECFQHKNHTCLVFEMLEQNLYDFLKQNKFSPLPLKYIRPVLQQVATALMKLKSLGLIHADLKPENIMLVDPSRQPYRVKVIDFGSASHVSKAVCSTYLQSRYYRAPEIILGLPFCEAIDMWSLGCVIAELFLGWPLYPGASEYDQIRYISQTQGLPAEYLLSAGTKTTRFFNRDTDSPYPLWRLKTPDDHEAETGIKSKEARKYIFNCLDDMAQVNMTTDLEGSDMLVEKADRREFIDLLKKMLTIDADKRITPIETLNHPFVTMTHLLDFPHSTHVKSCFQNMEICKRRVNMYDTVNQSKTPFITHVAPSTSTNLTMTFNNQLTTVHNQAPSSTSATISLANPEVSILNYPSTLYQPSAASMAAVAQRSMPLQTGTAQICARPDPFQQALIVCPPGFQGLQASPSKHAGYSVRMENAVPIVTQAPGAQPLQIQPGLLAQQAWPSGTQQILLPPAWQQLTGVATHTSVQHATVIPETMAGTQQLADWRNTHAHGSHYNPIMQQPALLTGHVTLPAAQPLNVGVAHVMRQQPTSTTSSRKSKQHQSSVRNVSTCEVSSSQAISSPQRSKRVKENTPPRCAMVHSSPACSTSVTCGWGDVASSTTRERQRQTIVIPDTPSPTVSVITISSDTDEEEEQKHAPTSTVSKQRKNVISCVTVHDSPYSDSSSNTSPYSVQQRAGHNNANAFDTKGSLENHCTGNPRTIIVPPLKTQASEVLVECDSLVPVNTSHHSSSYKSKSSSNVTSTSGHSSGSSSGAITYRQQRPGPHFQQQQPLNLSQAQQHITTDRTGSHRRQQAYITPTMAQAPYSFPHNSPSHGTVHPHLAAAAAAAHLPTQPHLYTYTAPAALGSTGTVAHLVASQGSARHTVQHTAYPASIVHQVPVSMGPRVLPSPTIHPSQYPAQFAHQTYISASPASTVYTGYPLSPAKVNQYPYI
UniProt P08631: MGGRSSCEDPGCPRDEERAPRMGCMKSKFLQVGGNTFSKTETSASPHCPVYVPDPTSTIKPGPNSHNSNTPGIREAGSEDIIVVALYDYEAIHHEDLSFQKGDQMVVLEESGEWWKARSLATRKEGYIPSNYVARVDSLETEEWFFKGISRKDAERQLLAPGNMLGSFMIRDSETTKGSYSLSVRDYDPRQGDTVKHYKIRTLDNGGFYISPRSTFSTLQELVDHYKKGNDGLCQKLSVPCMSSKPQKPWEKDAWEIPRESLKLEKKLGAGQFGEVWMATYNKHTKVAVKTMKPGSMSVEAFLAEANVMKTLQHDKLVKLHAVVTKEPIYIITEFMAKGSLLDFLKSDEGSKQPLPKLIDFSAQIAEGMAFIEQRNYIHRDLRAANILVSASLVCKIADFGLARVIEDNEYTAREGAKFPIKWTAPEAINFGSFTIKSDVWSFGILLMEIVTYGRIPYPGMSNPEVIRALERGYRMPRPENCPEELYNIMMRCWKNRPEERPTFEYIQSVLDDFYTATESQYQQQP
UniProt P06239: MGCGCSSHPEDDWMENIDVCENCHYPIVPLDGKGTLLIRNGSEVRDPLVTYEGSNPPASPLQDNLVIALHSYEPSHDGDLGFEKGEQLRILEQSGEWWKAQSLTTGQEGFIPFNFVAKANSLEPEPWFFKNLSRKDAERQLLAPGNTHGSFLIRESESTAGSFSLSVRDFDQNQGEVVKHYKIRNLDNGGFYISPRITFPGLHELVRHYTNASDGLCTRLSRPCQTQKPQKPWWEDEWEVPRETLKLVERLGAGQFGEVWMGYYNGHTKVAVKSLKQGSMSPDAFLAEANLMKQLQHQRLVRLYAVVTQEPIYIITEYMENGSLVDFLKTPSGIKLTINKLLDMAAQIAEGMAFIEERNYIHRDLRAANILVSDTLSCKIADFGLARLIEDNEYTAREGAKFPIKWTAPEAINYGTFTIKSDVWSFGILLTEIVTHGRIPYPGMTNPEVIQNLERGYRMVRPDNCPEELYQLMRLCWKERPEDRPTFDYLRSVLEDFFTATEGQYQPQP
UniProt Q13043: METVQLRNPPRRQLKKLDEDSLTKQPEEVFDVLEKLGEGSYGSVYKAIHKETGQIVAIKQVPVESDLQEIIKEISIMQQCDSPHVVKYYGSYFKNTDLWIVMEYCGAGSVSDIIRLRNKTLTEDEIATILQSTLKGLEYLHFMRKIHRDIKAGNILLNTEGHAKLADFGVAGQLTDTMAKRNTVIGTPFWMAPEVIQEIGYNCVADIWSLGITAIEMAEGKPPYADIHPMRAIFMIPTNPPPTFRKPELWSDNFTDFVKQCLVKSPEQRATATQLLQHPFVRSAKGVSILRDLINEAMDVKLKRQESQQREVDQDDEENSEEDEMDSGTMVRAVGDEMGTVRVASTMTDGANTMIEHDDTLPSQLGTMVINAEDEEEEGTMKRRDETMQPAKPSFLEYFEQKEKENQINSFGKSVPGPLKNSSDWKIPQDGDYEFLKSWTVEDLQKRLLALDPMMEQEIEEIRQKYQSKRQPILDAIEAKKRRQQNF
UniProt P51956: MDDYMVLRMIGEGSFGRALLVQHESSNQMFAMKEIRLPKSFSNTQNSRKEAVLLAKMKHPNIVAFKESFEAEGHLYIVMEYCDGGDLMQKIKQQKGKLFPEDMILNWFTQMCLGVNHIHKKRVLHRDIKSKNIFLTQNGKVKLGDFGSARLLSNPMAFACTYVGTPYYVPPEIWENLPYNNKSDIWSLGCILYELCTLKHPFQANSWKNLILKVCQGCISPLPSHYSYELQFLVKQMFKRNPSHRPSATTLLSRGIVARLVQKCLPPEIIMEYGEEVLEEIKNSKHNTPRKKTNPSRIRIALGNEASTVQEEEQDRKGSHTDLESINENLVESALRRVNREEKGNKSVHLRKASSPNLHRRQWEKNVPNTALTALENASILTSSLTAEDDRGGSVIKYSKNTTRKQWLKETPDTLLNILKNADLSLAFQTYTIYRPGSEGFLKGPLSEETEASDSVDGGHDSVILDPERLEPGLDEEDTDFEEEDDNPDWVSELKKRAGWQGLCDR
UniProt Q9NQU5: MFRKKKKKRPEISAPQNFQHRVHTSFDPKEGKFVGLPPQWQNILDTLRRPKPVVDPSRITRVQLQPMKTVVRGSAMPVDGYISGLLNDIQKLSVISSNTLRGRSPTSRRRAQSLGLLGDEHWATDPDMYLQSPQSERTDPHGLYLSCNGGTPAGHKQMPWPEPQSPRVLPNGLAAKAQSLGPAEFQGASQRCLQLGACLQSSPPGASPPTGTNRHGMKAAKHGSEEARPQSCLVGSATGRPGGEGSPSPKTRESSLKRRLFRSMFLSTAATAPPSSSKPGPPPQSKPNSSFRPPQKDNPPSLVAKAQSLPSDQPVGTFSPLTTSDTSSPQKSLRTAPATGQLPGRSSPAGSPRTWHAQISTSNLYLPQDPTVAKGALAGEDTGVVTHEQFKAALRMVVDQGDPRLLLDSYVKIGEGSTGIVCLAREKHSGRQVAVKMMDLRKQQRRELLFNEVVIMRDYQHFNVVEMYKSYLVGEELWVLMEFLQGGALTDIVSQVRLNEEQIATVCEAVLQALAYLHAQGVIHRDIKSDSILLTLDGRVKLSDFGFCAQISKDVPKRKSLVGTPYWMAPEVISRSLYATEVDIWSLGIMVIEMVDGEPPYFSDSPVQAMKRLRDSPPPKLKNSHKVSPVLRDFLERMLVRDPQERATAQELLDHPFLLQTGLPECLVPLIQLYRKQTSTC
UniProt P05771, whole entry, looked up: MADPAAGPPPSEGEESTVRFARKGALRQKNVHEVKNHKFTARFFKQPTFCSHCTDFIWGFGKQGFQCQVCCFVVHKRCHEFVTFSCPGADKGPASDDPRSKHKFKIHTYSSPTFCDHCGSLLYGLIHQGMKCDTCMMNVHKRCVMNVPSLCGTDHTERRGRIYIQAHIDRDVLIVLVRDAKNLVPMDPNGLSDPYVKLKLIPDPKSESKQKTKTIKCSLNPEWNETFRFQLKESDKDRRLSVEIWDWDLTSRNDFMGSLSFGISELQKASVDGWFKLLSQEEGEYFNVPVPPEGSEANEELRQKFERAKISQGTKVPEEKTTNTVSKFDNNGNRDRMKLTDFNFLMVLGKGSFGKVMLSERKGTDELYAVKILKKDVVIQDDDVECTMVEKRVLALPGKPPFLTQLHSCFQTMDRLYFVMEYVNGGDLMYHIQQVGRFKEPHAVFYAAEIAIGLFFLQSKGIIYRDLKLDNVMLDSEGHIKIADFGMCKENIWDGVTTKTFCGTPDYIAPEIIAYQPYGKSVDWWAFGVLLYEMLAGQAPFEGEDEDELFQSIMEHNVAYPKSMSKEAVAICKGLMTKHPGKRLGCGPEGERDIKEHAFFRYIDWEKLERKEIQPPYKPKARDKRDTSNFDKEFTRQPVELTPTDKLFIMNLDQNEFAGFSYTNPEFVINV
UniProt O96013: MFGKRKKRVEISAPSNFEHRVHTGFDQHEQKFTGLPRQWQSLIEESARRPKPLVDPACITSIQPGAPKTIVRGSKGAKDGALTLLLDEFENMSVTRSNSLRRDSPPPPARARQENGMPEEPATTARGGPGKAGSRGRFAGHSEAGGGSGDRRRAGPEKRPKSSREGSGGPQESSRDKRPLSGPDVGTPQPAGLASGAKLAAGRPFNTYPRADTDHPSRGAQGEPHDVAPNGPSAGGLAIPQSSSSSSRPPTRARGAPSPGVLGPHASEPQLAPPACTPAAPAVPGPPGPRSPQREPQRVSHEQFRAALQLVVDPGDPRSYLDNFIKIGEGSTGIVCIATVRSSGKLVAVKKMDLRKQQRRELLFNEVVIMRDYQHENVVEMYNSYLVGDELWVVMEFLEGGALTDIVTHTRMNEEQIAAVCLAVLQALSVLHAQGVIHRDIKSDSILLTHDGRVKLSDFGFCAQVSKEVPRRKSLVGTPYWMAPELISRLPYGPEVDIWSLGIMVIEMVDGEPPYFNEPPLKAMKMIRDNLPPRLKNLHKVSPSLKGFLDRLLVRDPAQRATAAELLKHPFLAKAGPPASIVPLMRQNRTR
UniProt Q9UPE1, whole entry: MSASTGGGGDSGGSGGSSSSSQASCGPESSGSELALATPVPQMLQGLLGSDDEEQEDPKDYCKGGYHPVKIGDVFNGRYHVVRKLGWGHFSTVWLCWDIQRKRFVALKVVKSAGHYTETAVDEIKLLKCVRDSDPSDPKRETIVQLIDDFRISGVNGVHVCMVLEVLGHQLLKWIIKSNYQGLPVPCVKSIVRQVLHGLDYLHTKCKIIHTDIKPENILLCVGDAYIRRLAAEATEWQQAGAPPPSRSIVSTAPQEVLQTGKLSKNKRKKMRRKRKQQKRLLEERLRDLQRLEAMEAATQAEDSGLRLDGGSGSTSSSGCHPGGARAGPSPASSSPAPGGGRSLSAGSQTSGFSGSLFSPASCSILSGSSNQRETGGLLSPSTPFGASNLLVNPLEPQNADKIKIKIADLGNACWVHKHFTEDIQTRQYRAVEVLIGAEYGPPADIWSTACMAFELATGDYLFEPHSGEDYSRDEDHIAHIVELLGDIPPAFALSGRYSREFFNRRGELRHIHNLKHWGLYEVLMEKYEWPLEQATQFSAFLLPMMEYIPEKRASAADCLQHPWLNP

The target of assay [12] is Serine/threonine-protein kinase PAK 6 (Homo sapiens) (UniProt Q9NQU5). The note with it: at 1 µM.
The target of assay [13] is cAMP-dependent protein kinase catalytic subunit alpha (Homo sapiens) (UniProt P17612). The note with it: at 10 µM.
Assay [14] addresses Protein kinase C beta type (Homo sapiens) (UniProt P05771). The note with it: at 10 µM.
For assay [15] the target is unchanged. The note with it: at 1 µM.
Assay [16] has as its target Tyrosine-protein kinase HCK (Homo sapiens) (UniProt P08631). The note with it: at 10 µM.
In assay [17] the target is Serine/threonine-protein kinase PAK 4 (Homo sapiens) (UniProt O96013). Particulars: at 1 µM.
For assay [18] the target is unchanged. Particulars: at 10 µM.
In assay [19] the target is SRSF protein kinase 3 (Homo sapiens) (UniProt Q9UPE1). The note with it: at 1 µM.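 Further: residual kinase activity expressed as percent of uninhibited control, measured in MOPS buffer at pH 7.0 containing EDTA.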

Molecules are shown by their SMILES. For some of these results: What follows is the remainder of the data, with few or none of the strong results. The list shows a part of the results, in another mix than the full data.

As a reminder, the residual activity is the signal under treatment as a percentage of the control signal. As to `O=[N+]([O-])/C=C/c1ccc2c(c1)OCO2`, the residual activity in [1] was found to be 103%; in assay [2], 132%; in assay [3] it was 108%; in assay [4] it was 103%; in [5], 107%; in assay [6], 89%. The residual activity is 105% in [7]; 114% in assay [8]; 104% in assay [9]; 102% in [10]; inactive: 109% in [11]; 105% in [12]. The residual activity in assay [13] stood at 101%; in [14], 102%; in assay [15], 102%.
Turning to `COc1cc(OC)c(/C=C2\C(=O)Nc3ccccc32)c(OC)c1`, the results for the residual activity in assay [16], in assay [17] and in [18] were 88%, 89% and 89%, respectively.
`CN[C@@H]1C[C@H]2O[C@@](C)([C@@H]1OC)n1c3ccccc3c3c4c(c5c6ccccc6n2c5c31)C(=O)NC4`: the residual activity in assay [19] was found to be 92%.

The record behind these values is ChEMBL document CHEMBL2218924, “A broad activity screen in support of a chemogenomic map for kinase signalling research and drug discovery” (Biochem J, 2013).
